The record followed here is ChEMBL document CHEMBL4354822, “Ligand-Based Design of Nondimethylphenyl-Diarylpyrimidines with Improved Metabolic Stability, Safety, and Oral Pharmacokinetic Profiles” (J Med Chem, 2019).

A short description of this data set: Selectivity index, ratio of CC50 for human MT4 cells to EC50 for antiviral activity against HIV1 3B infected in human MT4 cells incubated for 5 days by MTT assay. As to conditions: MT4 cells (uninfected for CC50; HIV-1 3B infected for EC50). The format is toxicity, cell-based. A general note: Tetrazolium dyes change colour on reduction, which living cells bring about.

On to `Cc1cc(C#N)cc(C)c1Oc1nc(Nc2ccc(C#N)cc2)nc(N)c1Br` [ETRAVIRINE], for which the selectivity ratio at 120 h is greater than 833.
